Where “and” joins values, the source holds several entries; their conditions need not be identical. Equal values may be shown once. The entries are a selection whose mix differs from that of the whole data set. Some results for these compounds are left out of this collection, so the calls shown say nothing about other tests. Calls of active or inactive are those of the source. Rule as the data show it: active = activity change below about -50%; inconclusive = between about -30% and that limit; inactive = weaker than that.
These compounds were tested against Mucolipin-1 (Homo sapiens) (UniProt Q9GZU1) (assay: qHTS for Inhibitors of the Human Mucolipin Transient Receptor Potential 1 (TRPML1)). Details: TRPML1-inducible cells, Ca2+ dye fluorescence, FDSS; hits give low values; inhibition of EC80 agonist-evoked calcium signal.
Excerpt: Mutations of human Mucolipin transient receptor potential 1 (TRPML1) cause type IV mucolipidosis (ML4), a devastating neurodegenerative disease in young children. […] Currently, there is no treatment for ML4. […] Under physiological conditions, TRPMLs regulate membrane trafficking by transducing information about PI(3,5)P2 levels into changes in juxtaorganellar Ca2+, thereby triggering membrane fusion/fission events in the late endocytic pathways (endolysosomal trafficking). In addition, TRPML1 mediates release of Fe2+ from late endosomes and lysosomes, which is essential for cellular iron metabolism. Thus, impaired ion (Ca2+ and Fe2+) homeostasis underlies lysosomal dysfunction and ML4 phenotypes. In ML4 cells, the problem is twofold. First, defective Ca2+-dependent membrane trafficking due to TRPML1-deficiency causes accumulation of lipids and other bio-materials in the lysosome. The second strike comes from the lysosomal iron overload (due to impairment of TRPML1's Fe2+ conductivity), which converts the accumulated materials into the nondegradable (resistant to lysosomal degradation) lipofuscin (also called aging pigment) in the lysosome. Lipofuscin accumulation dramatically compromises the functions of lysosomes.
Niemann-Pick type C (NPC) disease is another lysosome storage disease (LSD) with severe neurodegeneration during the childhood. Currently, there is no cure for NPC. […] Thus, TRPML1 is likely to be an essential regulator of lysosome ion homeostasis. We specifically hypothesize that stimulating TRPML1's Fe2+/Ca2+ channel activity in the lysosome using synthetic agonists can alleviate neurodegeneration associated with ML4 or NPC.
To this end, a high throughput screen was developed in a miniaturized format to screen against the Molecular Libraries Small Molecule Repository (MLSMR) to find small molecules that act either as inhibitors or agonist against the TRPML1 channel.
NIH Chemical Genomics Center [NCGC]
NIH Molecular Libraries Probe Centers Network [MLPCN]
Assay Submitter (PI): Haoxing Xu, University of Michigan Ann Arbor
TRPML1-DL cells are dissociated from flasks, counted and, brought up to a density of 500,000 cells per mL of media containing a 1X Tet inducer. Using a Multidrop Combi, 3 uL of this cell solution is dispensed to each well of a 1536 TC treated, black, clear bottom hi base plate for a final cell density of 1,500 cells per well. The assay plates are incubated overnight (approximately 16 hours) at 37 degrees C and 5% CO2. Using a Multidrop Combi, 2 uL of ABD Ca8 no wash dye plus quencher is added to each well. The assay plates incubate at room temperature in the dark for 45-90 minutes. The assay plate is read on the FDSS using the following protocol: 10 second baseline read, 23 nL of compounds and controls are added using 1536 pintool, agonist read for 110 seconds, 1 uL EC80 addition (4 uM final 54-4 diluted in media), antagonist read for 110 seconds.
% is scaled to controls: 0 for no effect and ±100 for the full control effect.
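Also: stimulus is agonist 54-4 at its EC80 concentration.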

Chains of the proteins cited; added tags and fusions are not shown.
UniProt Q9GZU1, whole entry: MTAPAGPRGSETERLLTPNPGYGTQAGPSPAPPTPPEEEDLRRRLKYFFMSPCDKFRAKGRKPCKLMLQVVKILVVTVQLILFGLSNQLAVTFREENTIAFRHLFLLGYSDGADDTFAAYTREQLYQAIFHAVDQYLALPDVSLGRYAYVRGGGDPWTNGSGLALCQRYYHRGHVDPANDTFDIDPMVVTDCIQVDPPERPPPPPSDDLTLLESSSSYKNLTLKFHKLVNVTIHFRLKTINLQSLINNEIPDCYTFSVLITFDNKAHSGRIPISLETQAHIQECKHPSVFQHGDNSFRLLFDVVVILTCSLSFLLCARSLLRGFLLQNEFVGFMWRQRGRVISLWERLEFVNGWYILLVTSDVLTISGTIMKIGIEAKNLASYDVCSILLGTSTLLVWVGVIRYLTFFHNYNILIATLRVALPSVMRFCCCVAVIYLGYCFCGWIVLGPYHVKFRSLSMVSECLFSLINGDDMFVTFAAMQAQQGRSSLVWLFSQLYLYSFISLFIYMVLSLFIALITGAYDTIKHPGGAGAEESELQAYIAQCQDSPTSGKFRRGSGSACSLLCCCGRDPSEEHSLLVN

Q: `COc1cc(C(=O)NCC2(N(C)C)CCCCC2)c([N+](=O)[O-])cc1OC` was tested. Which activity change, negative = inhibition did it give?
A: inactive: -20.5%

Q: How did the activity change, negative = inhibition turn out when `CN(C)C1(CNC(=O)c2ccc(Br)cc2)CCCCC1` was run?
A: inactive: -8.36%

Q: `O=C(NCC1(N2CCCCC2)CCCCC1)c1cccc(Cl)c1` was tested. Which activity change, negative = inhibition did it give?
A: inactive: -9.88%

Q: For `COc1ccc(C(=O)NCC2(N(C)C)CCCCC2)cc1Cl`, which activity change, negative = inhibition is on record?
A: inactive: -10.6%

Q: For `COc1ccc(Cl)cc1C(=O)NCC1(N(C)C)CCCCC1`, which activity change, negative = inhibition is on record?
A: inactive: 26.5%

Q: How did the activity change, negative = inhibition turn out when `COc1cccc(C(=O)NCC2(N3CCCCC3)CCCCC2)c1` was run?
A: inactive: 3.64%

Q: How did the activity change, negative = inhibition turn out when `CC(C)COc1ccc(C(=O)NCC2(N(C)C)CCCCC2)cc1` was run?
A: inactive: 2.6%

Q: With `O=C(OC1CN2CCC1CC2)C(CO)(c1ccccc1)c1ccccc1` (stereo not given) as the compound, how does the activity change, negative = inhibition read?
A: inactive: 5.01%

Q: For `COc1cccc(C(=O)NCC2(N3CCOCC3)CCCCC2)c1`, which activity change, negative = inhibition is on record?
A: inactive: -13.4%

Q: Which activity change, negative = inhibition does the source give for `CN(C)c1cccc(C(=O)NCC2(N(C)C)CCCCC2)c1` here?
A: inactive: -8.24%

Q: For `O=C(OCCN1CCCC1)C(O)(c1ccccc1)c1ccccc1`, which activity change, negative = inhibition is on record?
A: inactive: -0.0046%

Q: Which activity change, negative = inhibition does the source give for `CC(C)Oc1ccc(C(=O)NCC2(N(C)C)CCCCC2)cc1` here?
A: inactive: 15.2% and inactive: -9.08%

Q: For `COc1ccc(Br)c(C(=O)NCC2(N3CCCCC3)CCCCC2)c1`, which activity change, negative = inhibition is on record?
A: inactive: 25.2%

Q: How did the activity change, negative = inhibition turn out when `COc1cc(C(=O)NCC2(N(C)C)CCCCC2)cc(OC)c1OC` was run?
A: inactive: -15.3%

Q: `Cc1cccc(C(=O)NCC2(N(C)C)CCCCC2)c1` was tested. Which activity change, negative = inhibition did it give?
A: inactive: -2.91%

Q: Which activity change, negative = inhibition does the source give for `C=C(C)C#CC(O)(C(=O)OC1CCN(C)CC1)c1ccccc1` (stereo not given) here?
A: inactive: -22.5%

Q: `CN1[C@@H]2CC[C@H]1CC(OC(=O)C(O)(c1ccccc1)c1ccccc1)C2` (stereo not given in full) was tested. Which activity change, negative = inhibition did it give?
A: inactive: 50.5%

Q: `O=C(NCC1(N2CCCCC2)CCCCC1)c1cc([N+](=O)[O-])ccc1Cl` was tested. Which activity change, negative = inhibition did it give?
A: inactive: -4.97%

Q: Which activity change, negative = inhibition does the source give for `CN(C)C1(CNC(=O)c2ccccc2F)CCCCC1` here?
A: inactive: 16.6%

Q: For `Cc1ccc(C(=O)NCC2(N3CCCCC3)CCCCC2)cc1`, which activity change, negative = inhibition is on record?
A: inactive: -8.39%

Q: Which activity change, negative = inhibition does the source give for `CC(C)N1C(=O)CC2(CCN(CCOC(=O)C(O)(c3ccccc3)c3ccccc3)CC2)C1=O` here?
A: inactive: 23.6%

Q: `CN(C)C1(CNC(=O)c2cccc(Cl)c2)CCCCC1` was tested. Which activity change, negative = inhibition did it give?
A: inactive: 18.5%

Q: Which activity change, negative = inhibition does the source give for `CCN(CC)CC(C)C(C)OC(=O)C(O)(c1ccccc1)c1ccccc1` (stereo not given) here?
A: inactive: 12.7%

Q: With `CCCCOc1ccccc1C(=O)NCC1(N(C)C)CCCCC1` as the compound, how does the activity change, negative = inhibition read?
A: inactive: -2.85%

Q: With `CN(C)C1CCCC1OC(=O)C(O)(c1ccccc1)c1ccccc1` (stereo not given) as the compound, how does the activity change, negative = inhibition read?
A: inactive: -10.3%

Q: For `CN(C)c1ccc(C(=O)NCC2(N(C)C)CCCCC2)cc1`, which activity change, negative = inhibition is on record?
A: inactive: -6.3%

Q: How did the activity change, negative = inhibition turn out when `CN(C)C1(CNC(=O)c2ccccc2[N+](=O)[O-])CCCCC1` was run?
A: inactive: -1.43%

Q: `Cc1ccccc1C(=O)NCC1(N2CCCCC2)CCCCC1` was tested. Which activity change, negative = inhibition did it give?
A: inactive: 17.3%

Q: With `O=C(NCC1(N2CCCCC2)CCCCC1)c1cccc(Br)c1` as the compound, how does the activity change, negative = inhibition read?
A: inactive: -5.56%

Q: How did the activity change, negative = inhibition turn out when `Cc1cc(C(=O)NCC2(N3CCCCC3)CCCCC2)ccc1[N+](=O)[O-]` was run?
A: inactive: 33.4%

Q: With `CCN1CCCC(OC(=O)C2(O)c3ccccc3C=Cc3ccccc32)C1` (stereo not given) as the compound, how does the activity change, negative = inhibition read?
A: inactive: 1.27%

Q: `CCOc1cccc(C(=O)NCC2(N(C)C)CCCCC2)c1` was tested. Which activity change, negative = inhibition did it give?
A: inactive: 0.976%

Q: Which activity change, negative = inhibition does the source give for `COc1ccc(C(=O)NCC2(N(C)C)CCCCC2)cc1` here?
A: inactive: -2%

Q: With `O=C(NCC1(N2CCCCC2)CCCCC1)c1cc(F)c(F)cc1Cl` as the compound, how does the activity change, negative = inhibition read?
A: inactive: -11%

Q: How did the activity change, negative = inhibition turn out when `C=CCN1CCN(CCOC(=O)C(O)(c2ccccc2)c2ccccc2)CC1` was run?
A: inactive: -3.36%

From PubChem BioAssay AID624415 (National Center for Advancing Translational Sciences (NCATS), 2012)
